Melting point values, as collected for the OPERA models

Values as listed in the OPERA 2.9 repository of K. Mansouri.

Melting points are in °C.
Cells with "–" have no entry in this list.
"via" names the databases from which the curators took the value.

structure (SMILES)	name	mp (°C)	via
CC(CC(=O)[O-])CC(C)(C)C.[Na+] (configuration not stated)	Sodium 3,5,5-trimethylhexanoate	285	eChemPortal
Cc1ccc(-c2noc(CCC(=O)O)n2)cc1	3-[3-(4-methylphenyl)-1,2,4-oxadiazol-5-yl]propanoic acid	144	OCHEM
Cc1ccccc1-c1n[nH]c(=S)n1N	–	200	OCHEM
FC(F)C(F)(F)OC(F)(F)F	1,1,2,2-Tetrafluoro-1-(trifluoromethoxy)ethane	-141.2	ChemicalBook
Cc1ccc(-n2cnnc2SCC(=O)O)cc1	–	219	OCHEM
CCCCCCCCCCCC(=O)N(CCO)CCO	N,N-Bis(2-hydroxyethyl)dodecanamide	38.7	OCHEM, OFMPub, eChemPortal
CO/N=C(\C(C)=O)C1(C)OCC(C)(C)CO1	–	40	eChemPortal
COC(=O)C(CNC(=O)c1ccccc1C(F)(F)F)(C(=O)OC)c1ncc(C(F)(F)F)cc1Cl	–	103.2	eChemPortal
N#CC1(NC(=O)CCl)CCCCC1	2-chloro-N-(1-cyanocyclohexyl)acetamide	131	OCHEM
N=c1[nH]c2c(C(F)(F)F)cccc2s1	2-Benzothiazolamine, 4-(trifluoromethyl)-	49	OCHEM
Nc1ccc(-n2cncn2)c(F)c1	3-Fluoro-4-(1H-1,2,4-triazol-1-yl)aniline	127	OCHEM
CC(C)(C)N(NC(=O)c1ccccc1)C(=O)c1c(F)c(F)c(F)c(F)c1F	N'-Benzoyl-N-tert-butyl-2,3,4,5,6-pentafluorobenzohydrazide	200	OCHEM
COc1ccccc1-c1ccccc1C(=O)O	2-(2-methoxyphenyl)benzoic acid	150	OCHEM
O=c1nc[nH]c2cc(F)ccc12	7-Fluoroquinazolin-4(3H)-one	261	OCHEM
CC(=O)c1ccc2cccc3c2c1CC3	1-(1,2-Dihydroacenaphthylen-3-yl)ethan-1-one	105	OCHEM
CCOC(=O)c1cc2cc(C(=O)O)ccc2[nH]1	2-(Ethoxycarbonyl)-1H-indole-5-carboxylic acid	248	OCHEM
O=C(O)COCCOCCOCC(=O)O	2,2'-(Oxybis(2,1-ethanediyloxy))bisacetic acid	-29.05	eChemPortal
S=c1nc(-c2ccncc2)[nH][nH]1	1H-1,2,4-Triazole-3-thiol, 5-(4-pyridyl)-	310	OCHEM
Cn1c(-c2ccccc2)c(C=O)c2ccccc21	1H-Indole-3-carboxaldehyde, 1-methyl-2-phenyl-	126	OCHEM
Nc1cc(-c2ccco2)no1	3-(Furan-2-yl)-1,2-oxazol-5-amine	97	OCHEM
Cc1nc(C=O)c2ccccn12	3-methylimidazo[1,5-a]pyridine-1-carbaldehyde	116	OCHEM
O=C(O)CN1CCCC1=O	(2-oxopyrrolidin-1-yl)acetic acid	130	OCHEM
CCCCN1C(=O)c2ccc(C(=O)O)cc2C1=O	2-butyl-1,3-dioxo-2,3-dihydro-1H-isoindole-5-carboxylic acid	153	OCHEM
O=C(Cc1ccccc1)Nc1ccccc1C(=O)O	2-[(phenylacetyl)amino]benzoic acid	193	OCHEM
Nc1ccc(S(N)(=O)=O)cn1	6-aminopyridine-3-sulfonamide	172	OCHEM
NNC(=O)Cc1nc2ccccc2[nH]1	2-(1H-Benzimidazol-2-yl)acetohydrazide	179	OCHEM
Nc1nc(-c2ccccc2)c(-c2ccccc2)s1	Bax 439	182	OCHEM
CN(C)CCCN1c2ccccc2Sc2cccnc21.Cl	Prothipendyl hydrochloride	110	OCHEM
N#CCCNc1cccc(Cl)c1	3-(3-Chloroanilino)propanenitrile	142	OCHEM
O=C(O)c1cc(C2CC2)nc2ccccc12	2-cyclopropylquinoline-4-carboxylic acid	209	OCHEM
COc1ccc2nc(C)cc(Cl)c2c1	4-Chloro-6-methoxy-2-methylquinoline	100	OCHEM
O=C(O)c1cc(S(=O)(=O)Cl)ccc1F	5-(chlorosulfonyl)-2-fluorobenzoic acid	108	OCHEM
COc1cc(F)c(C=O)cc1F	2,5-difluoro-4-methoxybenzaldehyde	98.5	OCHEM
c1ccc2c(c1)ccc1c3ccccc3c3ccccc3c21	Benzo(g)chrysene	114.5	PubChem
O=C(O)CCCSc1nc2ccccc2[nH]1	4-(1H-Benzoimidazol-2-ylsulfanyl)-butyric acid	121	OCHEM
CCC(=O)O[C@]1(C(=O)CO)[C@@H](C)C[C@H]2[C@@H]3CCC4=CC(=O)C=C[C@]4(C)[C@@]3(F)[C@@H](O)C[C@@]21C	Betamethasone 17-propionate	236.6	eChemPortal
Brc1ccc(OCC2CO2)cc1 (configuration not stated)	(p-Bromophenoxy)methyl)oxirane	50	OCHEM
CC(C)[C@@H](Nc1ccc(C(F)(F)F)cc1Cl)C(=O)O	–	130	OCHEM

Repeated from above, the 6 entries with the highest mp:

{"smiles": "S=c1nc(-c2ccncc2)[nH][nH]1", "name": "1H-1,2,4-Triazole-3-thiol, 5-(4-pyridyl)-", "mp (°C)": "310", "via": "OCHEM"}
{"smiles": "CC(CC(=O)[O-])CC(C)(C)C.[Na+]", "stereo": "configuration not stated", "name": "Sodium 3,5,5-trimethylhexanoate", "mp (°C)": "285", "via": "eChemPortal"}
{"smiles": "O=c1nc[nH]c2cc(F)ccc12", "name": "7-Fluoroquinazolin-4(3H)-one", "mp (°C)": "261", "via": "OCHEM"}
{"smiles": "CCOC(=O)c1cc2cc(C(=O)O)ccc2[nH]1", "name": "2-(Ethoxycarbonyl)-1H-indole-5-carboxylic acid", "mp (°C)": "248", "via": "OCHEM"}
{"smiles": "CCC(=O)O[C@]1(C(=O)CO)[C@@H](C)C[C@H]2[C@@H]3CCC4=CC(=O)C=C[C@]4(C)[C@@]3(F)[C@@H](O)C[C@@]21C", "name": "Betamethasone 17-propionate", "mp (°C)": "236.6", "via": "eChemPortal"}
{"smiles": "Cc1ccc(-n2cnnc2SCC(=O)O)cc1", "mp (°C)": "219", "via": "OCHEM"}

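These are experimental values that the OPERA curators gathered from public databases to train and test their QSAR models. A listed value is a point estimate from one report or more. Method and conditions are not stated for these values. Where a salt, mixture or single isomer is drawn, the source does not say that exactly this form was tested. Some entries may be limits or estimates that an upstream database listed as plain numbers.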